# Results as given in ChEMBL document CHEMBL1157818, “Conformationally constrained kappa receptor agonists: stereoselective synthesis and pharmacological evaluation of 6,8-diazabicyclo[3.2.2]nonane derivatives” (J Med Chem, 2010).
# By UniProt entry, the sequences of proteins in these tests, tags left out. Where a name states a change or a piece, a line headed by the entry shows the natural chain unless it says otherwise.
# UniProt P41144: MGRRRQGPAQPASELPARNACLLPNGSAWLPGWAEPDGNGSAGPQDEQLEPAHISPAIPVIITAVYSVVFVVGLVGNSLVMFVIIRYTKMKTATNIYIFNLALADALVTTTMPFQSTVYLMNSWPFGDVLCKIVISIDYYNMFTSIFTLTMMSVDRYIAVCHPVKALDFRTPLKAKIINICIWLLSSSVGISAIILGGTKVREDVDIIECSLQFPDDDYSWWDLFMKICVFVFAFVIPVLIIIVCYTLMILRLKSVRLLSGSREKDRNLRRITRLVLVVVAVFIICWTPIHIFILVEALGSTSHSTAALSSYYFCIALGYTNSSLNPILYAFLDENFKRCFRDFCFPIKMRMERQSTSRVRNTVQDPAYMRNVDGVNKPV
# Target: Kappa-type opioid receptor (Cavia porcellus, UniProt P41144)
# Assay: Displacement of [3H]U69593 from kappa opioid receptor in guinea pig brain membrane after 150 mins by scintillation counting
row,Structure (SMILES),Ki
1,CN(C(=O)Cc1ccc(Cl)c(Cl)c1)C1CCCCC1N1CCCC1 (configuration not stated),0.31 nM
2,CN(C(=O)Cc1ccccc1)[C@H]1CC[C@@]2(CCCO2)C[C@@H]1N1CCCC1,0.97 nM
